Paper PMC3834762 (British Journal of Pharmacology, 2013)

By UniProt entry, the sequences of proteins in these tests, tags left out. Where a name states a change or a piece, a line headed by the entry shows the natural chain unless it says otherwise. Residues count along the entry.
UniProt O95264, 22-441: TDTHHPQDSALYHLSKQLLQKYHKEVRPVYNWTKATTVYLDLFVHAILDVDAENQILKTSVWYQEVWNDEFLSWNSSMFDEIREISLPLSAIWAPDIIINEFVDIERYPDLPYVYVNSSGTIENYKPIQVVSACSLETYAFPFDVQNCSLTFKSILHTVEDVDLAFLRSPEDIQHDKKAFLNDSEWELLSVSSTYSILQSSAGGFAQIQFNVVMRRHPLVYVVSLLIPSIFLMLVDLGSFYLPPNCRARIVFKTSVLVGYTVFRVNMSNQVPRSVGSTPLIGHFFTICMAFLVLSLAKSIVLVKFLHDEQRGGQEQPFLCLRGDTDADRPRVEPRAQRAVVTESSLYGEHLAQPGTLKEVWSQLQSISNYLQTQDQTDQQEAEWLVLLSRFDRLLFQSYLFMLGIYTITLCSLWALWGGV
UniProt P46098, 24-478 T279S: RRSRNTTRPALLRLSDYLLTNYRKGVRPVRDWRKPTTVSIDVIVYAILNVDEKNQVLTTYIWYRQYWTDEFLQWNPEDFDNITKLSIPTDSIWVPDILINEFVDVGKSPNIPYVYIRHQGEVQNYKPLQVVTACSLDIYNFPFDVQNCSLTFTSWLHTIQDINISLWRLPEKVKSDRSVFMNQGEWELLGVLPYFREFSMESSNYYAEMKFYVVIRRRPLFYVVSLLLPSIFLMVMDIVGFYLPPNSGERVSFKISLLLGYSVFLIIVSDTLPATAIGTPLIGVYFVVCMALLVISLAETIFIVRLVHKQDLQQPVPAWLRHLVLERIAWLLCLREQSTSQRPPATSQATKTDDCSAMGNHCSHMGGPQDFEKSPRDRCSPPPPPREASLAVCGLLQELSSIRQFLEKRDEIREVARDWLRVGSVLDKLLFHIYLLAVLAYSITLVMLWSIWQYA

Target: 5‐HT3AT6'SB receptors (Homo sapiens, UniProt O95264+P46098, T279S)
Experiment: two‐electrode voltage clamp, 5‐HT3AT6'SB mutant receptors in Xenopus oocytes
Type: cell-based
Settings: mutant vs wild type heteromer

Question: `NCCc1c[nH]c2ccc(O)cc12` [5‐HT, 5‐hydroxytryptamine] was tested. Which “decrease in EC50 at 5‐HT3AT6'SB compared to 5‐HT3AB receptors” value did it give?
Answer: 67 fold
